The list shows a part of the results.
tested on: A. baumannii ATCC 17978; test: relative growth (fraction of control); higher = less inhibition; conditions: 50 µM

| SMILES | relative growth |
| --- | --- |
| C=C[C@H]1CN2CC[C@H]1C[C@@H]2[C@H](O)c1ccnc2ccc(OC)cc12 | 0.976 |
| CN1C(=O)CC(C)(c2ccccc2)C1=O (stereo unspecified) | 0.962 |
| NC(=O)NCC#Cc1ccc2c(c1)[C@]1(C(=O)N2)[C@H](c2ccc(O)cc2)N2[C@H](c3ccccc3)[C@H](c3ccccc3)OC(=O)[C@H]2[C@@H]1C(N)=O | 0.964 |
| COCC#Cc1cnc2c(c1)C(=O)N([C@H](C)CO)C[C@H](C)[C@H](CN(C)C(=O)Nc1cc(F)ccc1F)O2 | 1.04 |
| NNC(=O)Cc1nc2ccccc2[nH]1 | 0.719 |
| COc1ccc(S(=O)(=O)N(C)C[C@@H]2Oc3c(NC(=O)Nc4cccc5ccccc45)cccc3C(=O)N([C@@H](C)CO)C[C@H]2C)c(OC)c1 | 0.862 |
| C[C@H]1CN([C@@H](C)CO)S(=O)(=O)c2ccc(-c3cccc(C(=O)N(C)C)c3)cc2O[C@H]1CN(C)C(=O)Cc1ccccn1 | 0.95 |
| O=C(C[C@H]1C[C@H]2c3cc(NC(=O)C4CCOCC4)ccc3O[C@H]2[C@H](CO)O1)NCc1ccc2c(c1)OCO2 | 1.04 |
| Cc1ccc(S(=O)(=O)NCC[C@H]2CC[C@@H](NS(=O)(=O)c3ccccc3Cl)[C@@H](CO)O2)cc1 | 0.905 |
| Cc1cccc(C)c1NC(=O)c1ccccc1C(=O)O | 1.04 |
| NNC(=O)c1ccccc1O | 0.751 |
| CC(C)COc1c[nH]c(CO)cc1=O | 1.03 |
| FCOC(C(F)(F)F)C(F)(F)F | 0.949 |
| O=C(O)c1cc(O)c2cccc(O)c2n1 | 0.895 |
| CN(C)CC(=O)N[C@H]1CC[C@@H](CCn2cc(CN(C)C)nn2)O[C@H]1CO | 1.01 |
| CC(C)NC(=O)N[C@@H]1CC[C@@H](CCN)O[C@@H]1CO | 1.08 |
| Cc1nc(C2C(=N)N([C@H]3CS(=O)(=O)C[C@@H]3O)CC2=O)sc1C (stereo partly specified) | 0.916 |
| O=C(CCCCCCC(=O)Nc1ccccc1O)N/N=C/c1ccc(N(c2ccccc2)c2ccccc2)cc1 | 1.27 |
| Nc1ncnc(NCCN2CCOCC2)c1[N+](=O)[O-] | 0.972 |
| CCCCCC1C(=O)CCC1CC(=O)OC (stereo unspecified) | 1.28 |
| NCC[C@H]1CC[C@@H](NC(=O)C2CCCC2)[C@@H](CO)O1 | 1.07 |
| C=C(CC)C(=O)c1ccc(OCC(=O)O)c(Cl)c1Cl | 1.12 |

| SMILES | relative growth |
| --- | --- |
| O=C(C[C@H]1CC[C@H](NS(=O)(=O)c2ccccc2)[C@H](CO)O1)NCc1ccncn1 | 1.04 |
| CCS(=O)(=O)NCC[C@H]1CC[C@H](NC(=O)C2CCOCC2)[C@H](CO)O1 | 1 |
| O=C(C[C@H]1C[C@H]2c3cc(NC(=O)Nc4ccc(C(F)(F)F)cc4)ccc3O[C@H]2[C@@H](CO)O1)NCc1ccc(Cl)cc1 | 0.777 |
| Nc1ccc(S(=O)(=O)NC(=O)c2ccccc2)cc1 | 1.03 |
| C[C@@H]1CN([C@H](C)CO)C(=O)CCCn2nncc2CO[C@H]1CN(C)Cc1ccc2c(c1)OCCN2C | 0.916 |
| CN(C)C(=O)C[C@@H]1C=C[C@H](NC(=O)C2CC2)[C@@H](CO)O1 | 0.929 |
| Cc1ccc(S(=O)(=O)N(C)C[C@@H]2Oc3ncc(-c4ccncc4)cc3C(=O)N([C@H](C)CO)C[C@H]2C)cc1 | 0.995 |
| Cc1ccc(S(=O)(=O)c2c[nH]c(=O)[nH]2)cc1 | 0.947 |
| NC[C@H](c1ccco1)N1CCc2ccccc2C1 | 0.891 |
| O=C1O[C@H](c2ccccc2)[C@H](c2ccccc2)N2[C@H]1[C@@H](C(=O)N1CCCCCCC1)[C@]1(C(=O)Nc3ccc(C#CCCO)cc31)[C@H]2c1ccc(OCCO)cc1 | 1.09 |
| CC(=O)NCCCC[C@@H]1NC(=O)[C@@H]2C[C@H](C(=O)NCCCCCN)[C@H](c3cccc(OCCO)c3)N2C1=O | 1.07 |
| CCCCCCC#C[Si](O[C@H](c1ccccc1)c1cn([C@H](CO)Cc2ccccc2)nn1)(C(C)C)C(C)C | 0.907 |
| C1N2CN3CN1CN(C2)C3 | 0.97 |
| O=C(O)C1=C[C@@H](O)[C@@H](O)[C@H](O)C1 | 0.942 |
| c1ccc(Nc2nc3c(ccc4ccccc43)s2)cc1 | 1.18 |
| C[Se]CC[C@H](N)C(=O)O | 0.931 |
| CO[C@@H]1CN(C)C(=O)c2cc(NC(=O)NC(C)C)ccc2OC[C@H](C)N(Cc2ccc(-c3ccccn3)cc2)C[C@H]1C | 1.11 |
| N[C@@H](CC(=O)O)C(=O)O | 0.926 |
| O=C(N[C@@H]1CC[C@H](CCNS(=O)(=O)c2ccccc2)O[C@@H]1CO)c1cnccn1 | 1.07 |
| CCCNC(=O)N1C[C@H](C)[C@H](OC)CN(C)C(=O)c2cc(NS(=O)(=O)CC(F)(F)F)ccc2OC[C@@H]1C | 0.973 |
| CCCNC(=O)C[C@@H]1CC[C@@H]2[C@H](COC[C@H](O)CN2S(=O)(=O)c2ccc(Oc3ccccc3)cc2)O1 | 0.977 |
| Cc1ncc([N+](=O)[O-])n1C | 0.906 |

| SMILES | relative growth |
| --- | --- |
| CNc1ncnc2c1ncn2[C@@H]1O[C@H](CO)[C@@H](O)[C@H]1O | 0.886 |
| CC(=O)O[C@H]1CC[C@]2(C)C3CC[C@@]4(C)C(CC5O[C@@]6(CCC(C)CO6)[C@@H](C)C54)C3CC[C@@H]2C1 (stereo partly specified) | 1.06 |
| Cc1nn(C)c(C)c1Nc1nnc(N)[nH]1 | 1.06 |
| CCCCN1CNC(=S)NC1 | 0.783 |
| CCC(C)C1NC(=O)C(CCN)NC(=O)C(NC(=O)C(CCN)NC(=O)C(NC(=O)C(CCN)NC(=O)CCCCC(C)C)C(C)O)CCNC(=O)C(C(C)O)NC(=O)C(CCN)NC(=O)C(CCN)NC(=O)C(C(C)CC)NC1=O.O=S(=O)(O)O.O=S(=O)(O)O (stereo unspecified) | 0.134 |
| O=C(C[C@H]1CC[C@@H](NC(=O)CN2CCOCC2)[C@@H](CO)O1)NC1CCC1 | 1.26 |
| COCC(=O)N1C[C@@H](C)[C@H](OC)CN(C)C(=O)c2cc(NC(=O)Nc3ccccc3)ccc2OC[C@@H]1C | 0.857 |
| CN(C)CC/C=C1/c2ccccc2COc2ccc(CC(=O)O)cc21.Cl | 0.144 |
| C=CCc1ccc(O)c(OC)c1 | 0.683 |
| COc1ccccc1CCCCN | 0.803 |
| O=S(=O)(NCC[C@H]1CC[C@H](NS(=O)(=O)c2cccc(Cl)c2)[C@@H](CO)O1)c1cccc(F)c1 | 0.998 |
| CCc1nc2[nH]c(C)cc(=O)n2n1 | 0.924 |
| CN(C)Cc1cn(CC[C@@H]2CC[C@@H](NS(=O)(=O)c3ccccc3)[C@H](CO)O2)nn1 | 1.02 |
| COC(=O)[C@@H]1C[C@H](C#N)N[C@@H]1c1ccccn1 | 0.95 |
| CCn1cc(C(=O)O)c(=O)c2cc(F)c(N3CCNCC3)nc21 | 0.155 |
| C[C@H]1CN([C@@H](C)CO)S(=O)(=O)c2ccc(-c3ccc(F)cc3)cc2O[C@@H]1CN(C)C(=O)C1CCOCC1 | 0.967 |
| O=C(C[C@H]1C[C@@H]2c3cc(NC(=O)c4ccc5c(c4)OCO5)ccc3O[C@@H]2[C@H](CO)O1)NCc1ccccn1 | 1.05 |
| CC[C@@H](N)Cn1c(=O)oc2ccccc21 | 0.868 |
| O=C(N[C@@H]1CC[C@H](CCn2cc(C3(O)CCCC3)nn2)O[C@@H]1CO)C1CCOCC1 | 0.999 |
| CCOC(=O)C1CCN(S(=O)(=O)c2c(C)n(C)c(=O)n(C)c2=O)CC1 | 0.849 |
| CN1C(=O)c2cc(NC(=O)C3CCC3)ccc2OC[C@H]2O[C@@H](CC(=O)NCCc3ccncc3)CC[C@H]21 | 1.12 |
| CC(C)C#Cc1ccc2c(c1)O[C@@H](CN(C)C(=O)c1cnccn1)[C@@H](C)CN([C@H](C)CO)S2(=O)=O | 1 |

| SMILES | relative growth |
| --- | --- |
| C[C@H]1CN([C@@H](C)CO)C(=O)c2cc(C#Cc3ccc(F)cc3)cnc2O[C@@H]1CN(C)Cc1ccccn1 | 0.959 |
| COCC#Cc1ccc2c(c1)O[C@H](CN(C)Cc1ccc(F)cc1)[C@@H](C)CN([C@@H](C)CO)S2(=O)=O | 1.21 |
| CC(CCC(=O)O)[C@H]1CCC2C3C[C@H](O)[C@@H]4C[C@H](O)CC[C@]4(C)C3CC[C@@]21C (stereo partly drawn) [alpha-HYDROXYDEOXYCHOLIC ACID] | 1.2 |
| O=C(CN1CCOCC1)N[C@@H]1CC[C@H](CCNS(=O)(=O)c2ccccc2F)O[C@H]1CO | 0.842 |
| C/C=C/c1ccc2c(c1)O[C@@H](CN(C)S(=O)(=O)c1ccccc1OC)[C@@H](C)CN([C@@H](C)CO)S2(=O)=O | 1.08 |
| CO[C@H]1CN(C)C(=O)c2ccc(NC(=O)C3CCOCC3)cc2OC[C@@H](C)N(Cc2cccnc2)C[C@H]1C | 1.28 |
| O=S1(=O)[C@@H]2C[C@H]3C=CC2(CN1C1CC1)O3 | 1.01 |
| CCCCC(=O)N1c2ccccc2[C@H](Nc2ccccc2)C[C@@H]1C | 0.645 |
| CC(C)[Si](C#C[Si](C(C)C)(C(C)C)C(C)C)(O[C@H](C)c1cn(Cc2cccc(Cl)c2)nn1)C(C)C | 0.76 |
| O=C(C[C@H]1CC[C@H](NC(=O)CN2CCOCC2)[C@H](CO)O1)NCCc1ccncc1 | 1.09 |
| CS(=O)(=O)CS(=O)(=O)C1=C(N2CCOCC2)C2CCN1CC2 | 1.02 |
| COC(=O)C[C@H]1CC[C@H]2[C@@H](COC[C@H](O)CN2S(=O)(=O)c2ccccc2C)O1 | 0.941 |
| C=CC(C)(O)CCC=C(C)CCC=C(C)C (mixture of isomers) | 0.85 |
| Cc1ccc(-c2csc(-c3ccc(C(F)(F)F)cc3)n2)cc1 | 0.887 |
| CC(=O)O[C@@H]1[C@@H]2C[C@@H]([C@H]1OC(C)=O)[C@@H]1C(=O)N(C)C(=O)[C@@H]21 | 1.03 |
| CN1CCN(C(=O)C[C@@H]2C=C[C@@H](NC(=O)c3ccc4c(c3)OCO4)[C@@H](CO)O2)CC1 | 1.13 |
| CC(C)(O)[C@@H]1CC[C@](C)([C@H]2[C@@H](O)C[C@@]3(C)C4C[C@H](O[C@@H]5O[C@H](CO)[C@@H](O)[C@H](O)[C@H]5O)C5C(C)(C)[C@@H](O[C@@H]6OC[C@@H](O)[C@H](O)[C@H]6O)CC[C@@]56C[C@@]46CC[C@]23C)O1 (stereo partly specified) | 1.03 |
| O=C1C(Cl)=C2OC[C@@]2(O)C[C@@H]2CCCN12 | 0.98 |
| CC(C(=O)O)c1cccc(Oc2ccccc2)c1 (stereo unspecified) | 1.02 |
| c1ccc(-c2nn(-c3ccccc3)c3c2cnc2ccccc23)cc1 | 1.05 |

Source: published antibiotic growth screens (doi:10.1038/s41589-023-01349-8)
